The text below walks through data of ChEMBL document CHEMBL3853350, “Discovery of a Selective Phosphoinositide-3-Kinase (PI3K)-γ Inhibitor (IPI-549) as an Immuno-Oncology Clinical Candidate” (ACS Med Chem Lett, 2016).

Sequences of proteins named here, by UniProt entry; tags and fusion partners are left off. A change or cut given only in a name is not applied to a line headed by its entry.
UniProt P48736: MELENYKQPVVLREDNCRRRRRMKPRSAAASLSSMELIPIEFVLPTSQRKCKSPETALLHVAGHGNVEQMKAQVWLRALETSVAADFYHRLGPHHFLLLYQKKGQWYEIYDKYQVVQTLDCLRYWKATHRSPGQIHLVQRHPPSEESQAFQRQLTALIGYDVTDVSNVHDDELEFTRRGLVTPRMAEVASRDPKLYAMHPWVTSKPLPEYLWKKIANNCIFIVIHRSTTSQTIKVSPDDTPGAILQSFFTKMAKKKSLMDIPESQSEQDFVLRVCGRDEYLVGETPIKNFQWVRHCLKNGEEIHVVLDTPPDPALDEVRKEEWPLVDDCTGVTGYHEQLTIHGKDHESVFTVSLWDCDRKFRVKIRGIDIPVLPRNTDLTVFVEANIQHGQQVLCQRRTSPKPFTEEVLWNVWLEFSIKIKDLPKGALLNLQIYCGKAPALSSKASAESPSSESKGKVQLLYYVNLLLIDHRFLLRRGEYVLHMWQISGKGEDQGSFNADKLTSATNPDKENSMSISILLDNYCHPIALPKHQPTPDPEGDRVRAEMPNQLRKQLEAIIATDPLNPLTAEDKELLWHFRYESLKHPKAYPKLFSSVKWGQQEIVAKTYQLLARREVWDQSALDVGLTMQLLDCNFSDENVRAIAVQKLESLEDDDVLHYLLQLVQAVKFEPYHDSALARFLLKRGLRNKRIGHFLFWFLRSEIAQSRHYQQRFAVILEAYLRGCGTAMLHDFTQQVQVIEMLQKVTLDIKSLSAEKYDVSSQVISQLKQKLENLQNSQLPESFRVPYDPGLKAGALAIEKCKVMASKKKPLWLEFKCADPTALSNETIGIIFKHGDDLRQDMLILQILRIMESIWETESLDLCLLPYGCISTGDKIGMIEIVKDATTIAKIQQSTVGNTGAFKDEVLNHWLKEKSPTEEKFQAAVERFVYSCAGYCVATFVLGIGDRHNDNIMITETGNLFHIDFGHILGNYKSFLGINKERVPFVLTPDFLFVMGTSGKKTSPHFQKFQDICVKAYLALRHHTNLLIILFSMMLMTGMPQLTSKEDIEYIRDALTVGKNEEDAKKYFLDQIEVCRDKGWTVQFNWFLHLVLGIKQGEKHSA

Each structure is given as a SMILES string.

What is called IC50 is the midpoint of a concentration-inhibition curve. High values mean a need for much substance, low ones inhibition by little substance.

This experiment addresses Phosphatidylinositol 4,5-bisphosphate 3-kinase catalytic subunit gamma isoform (Homo sapiens, UniProt P48736). Kind of experiment: biochemical.

Molecule `C[C@H](NC(=O)c1c(N)nn2cccnc12)c1cc2cccc(Cl)c2c(=O)n1-c1ccccc1` registered a concentration for half-maximal inhibition (IC50) of 40 nM.
